Source: publication PMC4778717 (ChemMedChem, 2015)

Sequences of proteins named here, by UniProt entry; tags and fusion partners are left off. Residues count along the entry.
UniProt P10408, 1-610: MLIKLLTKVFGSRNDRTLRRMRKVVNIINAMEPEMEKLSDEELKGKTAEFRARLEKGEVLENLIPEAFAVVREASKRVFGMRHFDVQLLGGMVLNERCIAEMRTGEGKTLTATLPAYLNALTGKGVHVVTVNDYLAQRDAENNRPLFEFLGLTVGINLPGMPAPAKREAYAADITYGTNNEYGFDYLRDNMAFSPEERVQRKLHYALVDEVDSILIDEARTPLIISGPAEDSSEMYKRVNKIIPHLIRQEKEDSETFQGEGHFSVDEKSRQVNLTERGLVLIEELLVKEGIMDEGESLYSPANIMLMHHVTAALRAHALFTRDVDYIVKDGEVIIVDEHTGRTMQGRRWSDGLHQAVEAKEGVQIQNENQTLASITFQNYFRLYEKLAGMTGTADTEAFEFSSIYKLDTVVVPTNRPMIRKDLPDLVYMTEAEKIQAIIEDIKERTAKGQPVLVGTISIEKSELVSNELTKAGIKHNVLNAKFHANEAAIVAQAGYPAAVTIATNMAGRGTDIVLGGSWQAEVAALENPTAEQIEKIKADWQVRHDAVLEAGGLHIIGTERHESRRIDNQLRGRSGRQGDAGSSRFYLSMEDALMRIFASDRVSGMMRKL

Target: EcSecAN68 (Escherichia coli, UniProt P10408)
Assay: biochemical
Design: species or system E. coli

## CSc1nc(C)cc(Sc2nnc(-c3cc(C(F)(F)F)cc(C(F)(F)F)c3)[nH]2)n1 [Compound 7a, 4-((5-(3,5-Bis(trifluoromethyl)phenyl)-4H-1,2,4-triazol-3-yl)thio)-6-methyl-2-(methylthio) pyrimidine]
  IC50: 25 µM
